Measured values published in US20250177353A1 (priority 2021, published 2025).

Assay: SAD phase I study: plasma pharmacokinetics of Compound 1 (Table 2)
[1] = 600 mg Fasted Micronized, single oral dose
[2] = 1050 mg Fasted Micronized, single oral dose
[3] = 1050 mg Fasted, single oral dose
[4] = 1400 mg Fasted Micronized, single oral dose

Cn1c(COc2ccc([N+](=O)[O-])cc2[N+](=O)[O-])cnc1[N+](=O)[O-]
AUCinf, Median [1]: 221 ng·h/mL
AUCinf/D, Geometric Mean [1]: 0.329 ng·h/mL/mg
AUCinf/D, Mean (SD) [1]: 0.358 (0.153) h*ng/mL/mg
AUCinf/D, Median [1]: 0.368 ng·h/mL/mg
AUClast, Geometric Mean [1]: 221 ng·h/mL
AUClast, Median [1]: 240 ng·h/mL
AUClast/D, Geometric Mean [1]: 0.368 ng·h/mL/mg
AUClast/D, Mean (SD) [1]: 0.410 (0.194) h*ng/mL/mg
AUClast/D, Median [1]: 0.399 ng·h/mL/mg
CL/F, Geometric Mean [1]: 3040 L/h
CL/F, Mean (SD) [1]: 3360 (1790) L/h
CL/F, Median [1]: 2720 L/h
Cmax, Geometric Mean [1]: 79.9 ng/mL
Cmax, Mean (SD) [1]: 90.0 (46.2) ng/mL
Cmax, Median [1]: 81.8 ng/mL
Cmax/D, Geometric Mean [1]: 0.133 ng/mL/mg
Cmax/D, Mean (SD) [1]: 0.150 (0.0770) ng/mL/mg
Cmax/D, Median [1]: 0.136 ng/mL/mg
Tlag, Median [1]: 0.250 h
Tlast, Median [1]: 10.0 h
t1/2, Geometric Mean [1]: 1.05 h
t1/2, Median [1]: 0.926 h
λz, Geometric Mean [1]: 0.660 h⁻¹
λz, Mean (SD) [1]: 0.693 (0.217) /h
λz, Median [1]: 0.749 h⁻¹
AUC0-24 h, Geometric Mean [2]: 437 ng·h/mL
AUC0-24 h, Median [2]: 350 ng·h/mL
AUC extrapolated, Geometric Mean [2]: 0.736%
AUC extrapolated, Mean (SD) [2]: 1.06 (0.842) %
AUC extrapolated, Median [2]: 0.894%
AUCinf, Geometric Mean [2]: 438 ng·h/mL
AUCinf, Median [2]: 352 ng·h/mL
AUCinf/D, Geometric Mean [2]: 0.417 ng·h/mL/ng
AUCinf/D, Mean (SD) [2]: 0.509 (0.428) h*ng/mL/ng
AUCinf/D, Median [2]: 0.336 ng·h/mL/ng
AUClast, Geometric Mean [2]: 434 ng·h/mL
AUClast, Median [2]: 347 ng·h/mL
AUClast/D, Geometric Mean [2]: 0.413 ng·h/mL/mg
AUClast/D, Mean (SD) [2]: 0.504 (0.423) h*ng/mL/mg
AUClast/D, Median [2]: 0.330 ng·h/mL/mg
CL/F, Geometric Mean [2]: 2400 L/h
CL/F, Mean (SD) [2]: 2710 (1150) L/h
CL/F, Median [2]: 3010 L/h
Cmax, Geometric Mean [2]: 129 ng/mL
Cmax, Median [2]: 128 ng/mL
Cmax/D, Geometric Mean [2]: 0.123 ng/mL/mg
Cmax/D, Mean (SD) [2]: 0.125 (0.0254) ng/mL/mg
Cmax/D, Median [2]: 0.122 ng/mL/mg
Tlag, Median [2]: 0.250 h
Tlast, Median [2]: 12.0 h
t1/2, Geometric Mean [2]: 1.50 h
t1/2, Median [2]: 1.31 h
λz, Geometric Mean [2]: 0.461 h⁻¹
λz, Mean (SD) [2]: 0.519 (0.263) /h
λz, Median [2]: 0.535 h⁻¹
AUC0-24 h, Geometric Mean [3]: 63.2 ng·h/mL
AUC0-24 h, Median [3]: 58.1 ng·h/mL
AUC extrapolated, Geometric Mean [3]: 3.87%
AUC extrapolated, Mean (SD) [3]: 4.92 (3.11) %
AUC extrapolated, Median [3]: 5.28%
AUCinf, Geometric Mean [3]: 63.7 ng·h/mL
AUCinf, Median [3]: 59.3 ng·h/mL
AUCinf/D, Geometric Mean [3]: 0.0606 ng·h/mL/ng
AUCinf/D, Mean (SD) [3]: 0.0686 (0.0392) h*ng/mL/ng
AUCinf/D, Median [3]: 0.0565 ng·h/mL/ng
AUClast, Geometric Mean [3]: 60.5 ng·h/mL
AUClast, Median [3]: 56.2 ng·h/mL
AUClast/D, Geometric Mean [3]: 0.0576 ng·h/mL/mg
AUClast/D, Mean (SD) [3]: 0.0658 (0.0394) h*ng/mL/mg
AUClast/D, Median [3]: 0.0535 ng·h/mL/mg
CL/F, Geometric Mean [3]: 16500 L/h
CL/F, Mean (SD) [3]: 18400 (8710) L/h
CL/F, Median [3]: 18100 L/h
Cmax, Geometric Mean [3]: 14.6 ng/mL
Cmax, Median [3]: 12.7 ng/mL
Cmax/D, Geometric Mean [3]: 0.0139 ng/mL/mg
Cmax/D, Mean (SD) [3]: 0.0163 (0.0115) ng/mL/mg
Cmax/D, Median [3]: 0.0121 ng/mL/mg
Tlag, Median [3]: 0.250 h
Tlast, Median [3]: 10.0 h
t1/2, Geometric Mean [3]: 1.96 h
t1/2, Median [3]: 1.62 h
λz, Geometric Mean [3]: 0.353 h⁻¹
λz, Mean (SD) [3]: 0.390 (0.143) /h
λz, Median [3]: 0.429 h⁻¹
AUC0-24 h, Geometric Mean [4]: 418 ng·h/mL
AUC0-24 h, Median [4]: 404 ng·h/mL
AUC extrapolated, Geometric Mean [4]: 0.525%
AUC extrapolated, Mean (SD) [4]: 0.547 (0.162) %
AUC extrapolated, Median [4]: 0.579%
AUCinf, Geometric Mean [4]: 415 ng·h/mL
AUCinf, Median [4]: 372 ng·h/mL
AUCinf/D, Geometric Mean [4]: 0.296 ng·h/mL/ng
AUCinf/D, Mean (SD) [4]: 0.306 (0.0863) h*ng/mL/ng
AUCinf/D, Median [4]: 0.265 ng·h/mL/ng
AUClast, Geometric Mean [4]: 422 ng·h/mL
AUClast, Median [4]: 421 ng·h/mL
AUClast/D, Geometric Mean [4]: 0.301 ng·h/mL/mg
AUClast/D, Mean (SD) [4]: 0.310 (0.0782) h*ng/mL/mg
AUClast/D, Median [4]: 0.300 ng·h/mL/mg
CL/F, Geometric Mean [4]: 3370 L/h
CL/F, Mean (SD) [4]: 3480 (909) L/h
CL/F, Median [4]: 3770 L/h
Cmax, Geometric Mean [4]: 136 ng/mL
Cmax, Median [4]: 147 ng/mL
Cmax/D, Geometric Mean [4]: 0.0973 ng/mL/mg
Cmax/D, Mean (SD) [4]: 0.0998 (0.0225) ng/mL/mg
Cmax/D, Median [4]: 0.105 ng/mL/mg
Tlag, Median [4]: 0.250 h
Tlast, Median [4]: 15.0 h
t1/2, Geometric Mean [4]: 1.46 h
t1/2, Median [4]: 1.42 h
λz, Geometric Mean [4]: 0.474 h⁻¹
λz, Mean (SD) [4]: 0.548 (0.300) /h
λz, Median [4]: 0.489 h⁻¹
median Tlag (across all dose levels 30-1050 mg, fasted): < 0.50 h
saturation of absorption (at high single doses): evidence of saturation of absorption
mean half-life (completed SAD study): 1 to 3 h
